# scFv variants of Ab-14 (heavy chain) against a SARS-CoV-2 spike peptide

Source: Li et al. 2023 (doi:10.1038/s41467-023-39022-2), MIT Lincoln Laboratory and A-Alpha Bio; data file from the FLAb repository.

The target is the same throughout: PDVDLGDISGINAS, from the HR2 region of SARS-CoV-2 spike.

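Designed CDR sequences, proposed from the first random library and measured here. Their group label is 14H_GP_Gen (GP: Gaussian process model; Gen: genetic algorithm; a sequence that several methods proposed may carry one label only). AlphaSeq pools MATa yeast showing the antibodies with MATalpha yeast showing the peptide. Pairs that bind mate more often; barcode pairs of the diploids are counted by sequencing. A regression on co-assayed BCL2-family reference pairs converts the normalised counts of each replicate to an apparent Kd. Mating was done six times.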

The variants keep the light chain, the linker and the frameworks of Ab-14 (scFv order VH, a 15-residue (Gly4Ser)3 linker, VL).
VH: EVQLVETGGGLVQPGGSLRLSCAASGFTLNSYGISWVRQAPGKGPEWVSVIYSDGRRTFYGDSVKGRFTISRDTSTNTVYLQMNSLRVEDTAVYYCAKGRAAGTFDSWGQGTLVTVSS
VL: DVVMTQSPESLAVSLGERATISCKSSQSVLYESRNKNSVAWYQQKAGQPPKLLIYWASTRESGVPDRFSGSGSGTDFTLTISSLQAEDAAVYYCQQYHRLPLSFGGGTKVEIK

Each variant is given by its three heavy chain CDRs, as the data file delimits them; those of the parent are GFTLNSYGIS, VIYSDGRRTFYGDSVK, GRAAGTFDS. Scale: log10 of Kd in nM, estimated from mating counts; low values are strong binders. Replicates are averaged; those with no signal do not enter the mean. An entry "nd" has no value in the source: the pair was not observed among the diploids in that replicate. This suggests poor binding but is not conclusive. The parent sequence was in this pool as ten entries: three were never detected, three once, and four in most replicates, with averages from 0.34 to 2.37. In the paper, a design with two or fewer of six values counts as a poor binder. Three control strains display no target. For all heavy chain designs, 1% of the pairings with them gave a signal, with a median of 2.08 and one signal in twenty below 0.84, so weak values seen in few replicates may be background. Also given: how often the same scFv was detected with the empty control strains. The range of this assay differs from that of the first round, and the authors advise against merging the two.

Variant GFELNSYGIS | VIYSDGRRTFYGDSVK | GEAAGTFDV gave nd, nd, nd, -0.05, 1.49, nd (mean 0.72; controls 1 of 18).
Variant GFTLNSYGIS | VIYSDGRRTFYGDDVK | GQAAGTFDL gave nd, 2.06, nd, 1.46, 1.92, nd (mean 1.81; controls 0 of 18).
Variant GFELNSYGIS | VIYSDGRRTFYGDSVK | GTQAGTFDS gave 0.70, 0.20, 0.36, -0.02, 0.01, 0.39 (mean 0.27; controls 1 of 18).
Variant GFDLNSYGIS | VIYSDGRRTFYDDSVK | GRTAGTFDS gave 0.35, 0.38, 0.12, -0.03, 0.27, 0.50 (mean 0.26; controls 0 of 18).
Variant GFTLNSYGIS | VIYSDGRRTFYSDQVK | GQTAGTFDS gave nd, 0.53, 0.35, 0.53, 0.24, 0.23 (mean 0.37; controls 0 of 18).
Variant GFQLNSYGIS | VIYSDGRRTFYGDDVK | GRTAGTFDS gave 1.71, 0.99, 0.85, 1.83, 1.01, 1.43 (mean 1.30; controls 0 of 18).
Variant GFTLDSYGIS | VIYSDGRRTFYGDEVK | GRTAGTFDS gave -0.69, 0.23, nd, nd, 1.80, -0.32 (mean 0.25; controls 0 of 18).
Variant KFQLNEYGIS | VIYSDGRRTFYGDSVK | GRTAGTFDT gave 1.75, 1.34, 1.51, 0.62, 1.29, 1.13 (mean 1.27; controls 1 of 18).
Variant GFSLNEYGIS | VIYSDGRRTFYADRVK | GRTAGTFDS gave -0.02, 0.18, -0.12, -0.22, -0.23, 0.20 (mean -0.03; controls 0 of 18).
Variant KFDLNSYGIS | VIYSDGRRTFYGDSVK | GKNAGTFDS gave 1.01, 0.93, 0.70, 1.16, 0.93, 0.78 (mean 0.92; controls 0 of 18).
Variant GFDLNSYGIS | VIYSDGRRTFYGDSVK | GQTAGTFDK gave 1.14, 0.23, 0.60, 0.79, 0.30, 0.39 (mean 0.57; controls 0 of 18).
Variant GFELNSYGIS | VIYSDGRRTFYIDSVK | GQAAGTFDA gave 1.04, 1.28, 1.34, 0.97, 0.98, 1.06 (mean 1.11; controls 1 of 18).
Variant GFELNSYGIS | VIYSDGRRTFYTDSVK | GHAAGTFDS gave 2.31, 0.67, nd, 1.04, 1.14, nd (mean 1.29; controls 0 of 18).
Variant SFDLNSYGIS | VIYSDGRRTFYGDSVK | GRNAGTFDS gave 0.26, 0.53, nd, 1.78, 1.32, 0.84 (mean 0.94; controls 0 of 18).
Variant GFDLNSYGIS | VIYSDGRRTFYGDSVK | GQAAGIFDS gave nd, nd, nd, nd, nd, 2.60 (controls 0 of 18).
Variant GFLLNEYGIS | VIYSDGRRTFYGDSVK | GQTAGTFDS gave 1.82, 4.31, 3.15, 1.14, 1.00, 1.55 (mean 2.16; controls 0 of 18).
Variant GFELNSYGIS | VIYADGRRTFYGDSVK | GRMAGTFDT gave 0.44, -0.11, -0.32, -0.53, -0.62, -0.06 (mean -0.20; controls 0 of 18).
Variant GFSLNEYGIS | VIYSDGKRTFYGDSVK | GQAAGTFDS gave -0.12, -0.27, -0.25, -0.55, -0.35, 0.03 (mean -0.25; controls 0 of 18).
Variant GFELNSYGIS | VIYSDGRRTAYGDSVK | GRTAGTFDS gave 0.02, 0.08, -0.33, 0.02, -0.16, -0.07 (mean -0.07; controls 0 of 18).
Variant GFQLNSYGIS | VIYSDGRRTFYGDNVK | GRTAGTFDT gave 1.45, 1.62, 0.69, 0.38, 0.64, 1.22 (mean 1.00; controls 0 of 18).
Variant GFSLNQYGIS | VIYSDGRRTFYKDSVK | GRTAGTFDS gave 0.49, 0.71, -0.21, 0.04, 0.17, 0.49 (mean 0.28; controls 0 of 18).
Variant GFSLNEYGIS | VIYSDGRRTFYHDSVK | GRTAGTFDT gave -0.94, -0.84, -0.40, -1.16, -0.91, -0.89 (mean -0.86; controls 0 of 18).
Variant MFDLNSYGIS | VIYSDGRRTFYIDSVK | GEAAGTFDS gave nd, nd, nd, nd, 0.12, nd (controls 0 of 18).
Variant GFGLNEYGIS | VIYSDGRRTFYGDSVK | GRHAGTFDS gave 0.62, 1.82, 1.39, 0.56, 0.81, 0.54 (mean 0.96; controls 1 of 18).
Variant GFGLNEYGIS | VIYSDGRRTFYGDSVK | GRQAGTFDT gave 0.98, 1.14, 0.34, 1.86, 1.78, nd (mean 1.22; controls 1 of 18).
Variant KFNLNSYGIS | VIYSDGRRTFYIDSVK | GRQAGTFDS gave nd, nd, nd, 1.45, nd, nd (controls 0 of 18).
Variant GFQLNEYGIS | VIYSDGRRTFYGDQVK | GQTAGTFDS gave -0.07, nd, nd, nd, nd, -0.57 (mean -0.32; controls 0 of 18).
Variant GFALNEYGIS | VIYSDGRRTFYGDSVK | GRMAGTFDT gave 0.73, 0.48, 0.66, 0.09, 0.90, 1.08 (mean 0.66; controls 0 of 18).
Variant MFDLNSYGIS | VIYSDGRRTAYGDSVK | GRNAGTFDS gave -0.18, 0.11, -0.54, -0.44, 0.07, -0.29 (mean -0.21; controls 1 of 18).
Variant GFQLNEYGIS | VIYSDGWRTFYGDSVK | GRTAGTFDS gave 0.83, 0.86, 1.07, 1.37, 0.93, 1.07 (mean 1.02; controls 1 of 18).
Variant GFDLNSYGIS | VIYSDGRRTFYADDVK | GRNAGTFDS gave 0.48, 0.28, 0.46, 0.13, 0.98, 0.37 (mean 0.45; controls 0 of 18).
Variant GFKLNSYGIS | VIYSDGRRTFYADSVK | GKNAGTFDS gave nd, 1.40, nd, 0.49, nd, nd (mean 0.94; controls 0 of 18).
Variant GFSLNEYGIS | VIYSDGRRTFYKDSVK | GQAAGTFDS gave 0.13, 0.75, -0.30, 0.39, -0.58, 0.54 (mean 0.15; controls 0 of 18).
Variant GFELNSYGIS | VIYSDGRRTFYSDQVK | GEAAGTFDS gave 1.22, 0.94, 0.83, nd, nd, 1.98 (mean 1.24; controls 0 of 18).
Variant GFSLNSYGIS | VIYSDGRRTFYGDDVK | GRNAGTFDS gave nd, nd, nd, nd, nd, nd (controls 0 of 18).